Data: paper PMC7363590 (Cancer cell, 2020)

Protein sequences, listed by entry. Tags and fused reporters are not part of them. Residues count along the entry.
UniProt Q9C0B1, 32-505: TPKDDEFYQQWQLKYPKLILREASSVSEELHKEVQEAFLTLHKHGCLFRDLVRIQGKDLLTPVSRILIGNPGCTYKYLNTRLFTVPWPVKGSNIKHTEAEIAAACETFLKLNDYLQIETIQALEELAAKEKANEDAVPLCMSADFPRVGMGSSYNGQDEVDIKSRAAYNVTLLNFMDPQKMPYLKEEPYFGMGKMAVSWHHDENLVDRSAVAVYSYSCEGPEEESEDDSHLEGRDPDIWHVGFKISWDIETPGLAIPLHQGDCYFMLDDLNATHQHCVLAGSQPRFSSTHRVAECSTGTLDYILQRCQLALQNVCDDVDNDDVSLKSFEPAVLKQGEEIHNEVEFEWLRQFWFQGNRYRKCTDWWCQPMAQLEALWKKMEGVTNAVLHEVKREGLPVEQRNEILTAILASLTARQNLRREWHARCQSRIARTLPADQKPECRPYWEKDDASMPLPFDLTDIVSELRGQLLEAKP

Target: FTO (fat mass and obesity-associated protein) (Homo sapiens, UniProt Q9C0B1)

With `Cc1c(-c2ccc(-c3ccccc3F)cc2)nc2ccc(F)cc2c1C(=O)O` [CS2, Brequinar] the IC50 was “both CS1 and CS2 efficiently suppressed m^6A demethylase activity of FTO, with IC50 values in nanomolar range”.
